Values quoted from earlier work, collected in publication PMC7862202 (Clinical Pharmacokinetics, 2020).

Test system: patients with ALK + NSCLC who are ALK inhibitor naive
Details: first interim analysis, blinded independent review committee; cited from earlier work

Compound: C[C@@H](Oc1cc(-c2cnn(C3CCNCC3)c2)cnc1N)c1c(Cl)ccc(F)c1Cl [crizotinib]
- 12-month event-free rate: 43%
